Values of other authors, collected in patent publication EP1935424A1, “PHARMACEUTICAL COMPOSITIONS COMPRISING COMBINED ANTIDIABETIC SUBSTANCES FOR USE IN DIABETES MELLITUS” (ESPINOZA ABDALA, Leopoldo de Jesús, priority 2005, dated 2007).

Conditions: oral / gastrointestinal tract, in words

absorption: slowly and incompletely absorbed
SMILES: CN(C)C(=N)N=C(N)N [Metformin]
